Laboratory results: paper PMC6900541 (Proceedings of the National Academy of Sciences of the …, 2019)
Numbering of substitutions follows the chain as printed. In names and notes the source's numbering stands. Values belong to the binder of their own block, whether it stands above or below them.

Target: T1, human PD-L2 ectodomain (human, UniProt Q9BQ51 20-220)
T1 sequence: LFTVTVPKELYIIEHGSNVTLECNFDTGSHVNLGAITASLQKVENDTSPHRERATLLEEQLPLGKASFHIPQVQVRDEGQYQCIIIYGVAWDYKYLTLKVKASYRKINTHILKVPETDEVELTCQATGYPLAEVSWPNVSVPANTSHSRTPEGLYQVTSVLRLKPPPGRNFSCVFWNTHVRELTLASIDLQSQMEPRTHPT
Experiment: BLI

Kd: 500 nM
B1: human PD-1 (wild type), PD-1-Fc (Fc fusion)
chain: LDSPDRPWNPPTFSPALLVVTEGDNATFTCSFSNTSESFVLNWYRMSPSNQTDKLAAFPEDRSQPGQDCRFRVTQLPNGRDFHMSVVRARRNDSGTYLCGAISLAPKAQIKESLRAELRVTERRAEVPTAHPSPSPRPAGQFQTLV

Kd: 12 nM
B2: human PD-1 T76P, PD-1-Fc (Fc fusion)
chain: B1 chain with T52P

Kd: 170 nM
B3: human PD-1 N74G, PD-1-Fc (Fc fusion)
chain: B1 chain with N50G

Kd: 69 nM
B4: human PD-1 A132V, PD-1-Fc (Fc fusion)
chain: B1 chain with A108V
